# Laboratory results from PubChem BioAssay AID1451 (NMMLSC, 2008).
# Sequences of proteins named here, by UniProt entry; tags and fusion partners are left off.
# UniProt P08183, whole entry: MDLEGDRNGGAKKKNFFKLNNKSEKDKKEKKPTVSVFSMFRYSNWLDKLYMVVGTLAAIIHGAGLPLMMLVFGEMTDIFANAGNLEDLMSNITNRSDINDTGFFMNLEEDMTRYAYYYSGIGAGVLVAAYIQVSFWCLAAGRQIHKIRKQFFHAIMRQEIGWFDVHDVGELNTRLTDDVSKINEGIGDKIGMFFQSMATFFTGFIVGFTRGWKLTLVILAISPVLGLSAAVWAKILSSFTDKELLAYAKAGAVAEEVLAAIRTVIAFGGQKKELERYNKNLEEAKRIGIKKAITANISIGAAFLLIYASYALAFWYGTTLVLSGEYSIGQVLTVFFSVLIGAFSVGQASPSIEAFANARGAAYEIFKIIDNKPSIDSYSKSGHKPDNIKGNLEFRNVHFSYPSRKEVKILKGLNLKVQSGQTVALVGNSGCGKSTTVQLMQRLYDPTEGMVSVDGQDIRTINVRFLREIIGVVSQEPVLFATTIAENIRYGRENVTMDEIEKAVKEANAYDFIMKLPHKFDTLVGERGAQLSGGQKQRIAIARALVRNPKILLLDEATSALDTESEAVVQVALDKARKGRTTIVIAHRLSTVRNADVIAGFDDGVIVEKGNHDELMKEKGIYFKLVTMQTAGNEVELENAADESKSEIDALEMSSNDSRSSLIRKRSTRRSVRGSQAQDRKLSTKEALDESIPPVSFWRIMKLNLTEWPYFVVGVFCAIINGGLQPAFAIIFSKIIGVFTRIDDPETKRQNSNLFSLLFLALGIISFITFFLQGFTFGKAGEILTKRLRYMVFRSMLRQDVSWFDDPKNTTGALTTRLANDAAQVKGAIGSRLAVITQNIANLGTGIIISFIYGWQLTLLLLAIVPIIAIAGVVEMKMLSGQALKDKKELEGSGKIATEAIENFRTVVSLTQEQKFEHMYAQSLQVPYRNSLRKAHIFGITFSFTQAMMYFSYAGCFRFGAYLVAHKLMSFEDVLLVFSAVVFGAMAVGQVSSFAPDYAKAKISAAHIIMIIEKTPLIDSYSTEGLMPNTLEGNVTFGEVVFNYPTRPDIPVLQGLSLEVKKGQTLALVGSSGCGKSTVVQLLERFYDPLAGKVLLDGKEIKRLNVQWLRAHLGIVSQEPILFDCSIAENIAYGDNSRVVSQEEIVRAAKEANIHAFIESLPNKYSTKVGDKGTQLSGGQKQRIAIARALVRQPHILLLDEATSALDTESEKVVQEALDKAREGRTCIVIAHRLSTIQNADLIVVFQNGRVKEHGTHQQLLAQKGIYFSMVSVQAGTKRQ
# This is a selection; strong and weak results do not stand in their true shares. Some of these compounds have results that are not shown, active ones among them. Active and inactive are the calls of the source.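 Rule for the calls: active = inhibition of pump activity above 50%; inactive = the rest.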
# Target: ATP-dependent translocase ABCB1 (Homo sapiens) (UniProt P08183)
# Test: ABCB1 efflux pump inhibitors, confirmation, cell-based, single point, ABCG2 counter-screen (AID 1451);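 note: 0% = DMSO and 100% = nicardipine full pump inhibition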
# Details: CCRF-Adr cells, JC-1 efflux, flow cytometry; at 6.6 µM; hits give high values
# How it was run: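 material = ABCB1-expressing CCRF-Adr cells | amount = 3 million cells per mL final in well | reagent = JC-1 substrate | compound dosing = single test-compound dose, 6.6 µM final | timing = 10 min exposure, 25 °C | measured by = flow cytometry, 530 nm emission | control set = nicardipine as high control, DMSO as low control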
structure (smiles),measurement,value
CN(C)c1cccc(C(=O)NCC2(N(C)C)CCCCC2)c1,inhibition,inactive: -1.23%
